Measurements: patent US4581451A, “Preparation of di- and tri-substituted xanthine compounds” (priority 1980, dated 1986)

Assays:
[1] = in vivo; conditions: rat, po, solution in DMSO
Source text: (b) Determination of the acute toxicity LD 50 in male and female rats in solution is DMSO (reference DMSO alone) in accordance with C.

[2] = in vivo; conditions: mouse, po, solution in DMSO

**Q.** With `C=CCn1c(=O)c2[nH]c(C)nc2n(CCCC)c1=O` [Example 1, 1-allyl-3-butyl-8-methyl xanthine] as the compound, how does the LD50 ([1]; female, read-out: LD 50, rats female) read?
**A.** 24 mg/kg

**Q.** What about the LD50 ([1]; male, read-out: LD 50, rats male) of the same compound?
**A.** 35 mg/kg

**Q.** And the LD50 ([2]; female, read-out: LD 50, mice female)?
**A.** 62 mg/kg

**Q.** And the LD50 ([2]; male, read-out: LD 50, mice male)?
**A.** 72 mg/kg

Read-outs that look alike come from different tables or passages of the source.
